According to US20170239310A1 (published 2017):

Assay: in vivo
Settings: rat, blood, po, 100 mg/kg

Compound: CN(C)C(=N)N=C(N)N [Metformin, metformin]
- AUC(0-inf): 33000 ng·h/mL
